Measurements published in patent publication US20230033360A1, “COMPOUNDS AS CD73 INHIBITORS” (BioArdis LLC, priority 2019, published 2023).
pIC50: −log10 of the molar value.

The chains behind the UniProt entries cited, without tags or fusion partners. Residues count along the entry.
UniProt P21589, 27-547 limits assumed: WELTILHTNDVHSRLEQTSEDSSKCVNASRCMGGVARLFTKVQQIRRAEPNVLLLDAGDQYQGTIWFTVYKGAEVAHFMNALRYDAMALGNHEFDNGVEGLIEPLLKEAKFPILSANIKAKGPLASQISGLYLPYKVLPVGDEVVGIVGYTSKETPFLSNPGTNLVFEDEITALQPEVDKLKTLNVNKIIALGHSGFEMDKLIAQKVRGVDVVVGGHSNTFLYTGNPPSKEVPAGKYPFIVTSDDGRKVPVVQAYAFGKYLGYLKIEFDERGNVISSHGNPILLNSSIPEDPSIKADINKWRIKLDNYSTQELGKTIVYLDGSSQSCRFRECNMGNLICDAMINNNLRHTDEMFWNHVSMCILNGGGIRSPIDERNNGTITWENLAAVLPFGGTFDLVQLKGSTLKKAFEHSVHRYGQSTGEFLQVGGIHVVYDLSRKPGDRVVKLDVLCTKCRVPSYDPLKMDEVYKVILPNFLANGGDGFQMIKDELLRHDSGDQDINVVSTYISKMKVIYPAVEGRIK

Biological target: Recombinant Human 5′-Nucleotidase (CD73) (Homo sapiens, UniProt P21589)
Experiment: CD73 Enzyme Assay (PiColorLock inorganic phosphate detection, AMP substrate)
Settings: read-out: Potency (IC50); human CD73 0.5 nM, AMP 30 μM, 20 min at 37° C., absorbance 635 nm
From the text: Soluble recombinant CD73 catalyzes the conversion of adenosine monophosphate (AMP) to adenosine and inorganic phosphate. The phosphate detection reagent, PiColorLock™ (Innova Bioscience, Cat #303-0125) is based on the change in absorbance of the dye malachite green in the presence of inorganic phosphate (Pi) and this property can be exploited to measure any enzyme that generates Pi. Recombinant Human 5′-Nucleotidase (CD73) (R&D #5795-EN, CHO derived CD73 (Trp27-Lys547), with a C-terminal 6-His tag) was used in the enzymatic assay. This assay, run in a 384-well plate format (Corning® NBS™ 384 well plates, Cat #3640), is a generic method for measuring inorganic phosphate. […] After incubation the absorbance of the solution is read at OD 635 nm. The recorded OD signal is proportional to the enzyme activity.
Briefly, 25 μl human CD73 (0.5 nM final concentration) in the enzymatic buffer solutions (20 mM Tris, 25 mM NaCl, 1 mM MgCl2, pH 7.5, 0.005% Tween-20) were mixed with various concentrations of the test compound (dissolved in 100% DMSO). […] The absorbance of the well solutions was measured at 635 nm on a Spark 10M instrument (TECAN).
The percent (%) inhibition at each concentration of a compound was calculated relative to the […] value in the Max and Min control wells contained within each assay plate. […]

## N#Cc1cc(N2CC3CCCC3C2)c2ncc([C@@H]3O[C@H](COP(=O)(O)CP(=O)(O)O)[C@@H](O)[C@H]3O)n2n1 (stereo partly shown)
  pIC50: > 9.00
